Experimental data reported in US8796244B2, “Imidazopyridine derivatives as inhibitors of receptor tyrosine kinases” (Astex Therapeutics Ltd, priority 2008, dated 2014).

Tested on: parental wild-type Ba/F3 cells
Assay: Ba/F3 (WT) cell proliferation assay (Alamar Blue)
Type: cell-based
Details: read-out: BaF3 WT prolif, 72 hours

`Cc1cc(-c2ccn3c(-c4cccc(NC(=O)NCC(F)(F)F)c4)cnc3c2)cnc1F` was tested, and the IC50 was 1800 nM.
